Here are results for 7 molecules from paper PMC8467848 (Molecules, 2021).

By UniProt entry, the sequences of proteins in these tests, tags left out.
UniProt P33534, whole entry: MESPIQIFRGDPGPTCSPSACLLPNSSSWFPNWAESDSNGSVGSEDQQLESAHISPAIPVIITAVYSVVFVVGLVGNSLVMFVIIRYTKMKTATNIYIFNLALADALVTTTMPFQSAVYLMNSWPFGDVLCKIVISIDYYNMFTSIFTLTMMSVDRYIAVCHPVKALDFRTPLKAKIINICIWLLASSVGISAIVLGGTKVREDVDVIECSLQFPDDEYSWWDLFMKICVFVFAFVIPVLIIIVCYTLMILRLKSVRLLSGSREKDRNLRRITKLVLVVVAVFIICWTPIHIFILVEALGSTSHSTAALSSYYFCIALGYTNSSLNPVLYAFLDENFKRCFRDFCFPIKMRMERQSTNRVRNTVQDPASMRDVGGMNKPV
UniProt P42866, whole entry: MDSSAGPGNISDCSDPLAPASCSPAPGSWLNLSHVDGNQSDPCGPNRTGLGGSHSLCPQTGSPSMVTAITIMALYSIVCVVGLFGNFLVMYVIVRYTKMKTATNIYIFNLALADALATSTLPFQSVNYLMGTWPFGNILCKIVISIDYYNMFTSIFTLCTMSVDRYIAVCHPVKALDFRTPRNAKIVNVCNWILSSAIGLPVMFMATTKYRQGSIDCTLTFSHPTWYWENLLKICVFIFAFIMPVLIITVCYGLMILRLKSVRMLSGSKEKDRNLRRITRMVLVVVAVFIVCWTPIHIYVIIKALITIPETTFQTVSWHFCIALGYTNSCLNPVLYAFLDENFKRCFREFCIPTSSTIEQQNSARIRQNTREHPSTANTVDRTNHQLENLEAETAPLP

Each structure is given as a SMILES string. Counter-ions that a name gives are not always drawn. A value given as a limit tells only on which side of the number the result lay.

For experiment [1], the target named is κ-opioid receptor (Mus musculus, UniProt P33534). In words: Radioligand binding assay, displacement of [3H]U69593 from mouse brain membranes. Conditions: abstract. In general terms: Displacement assays read how much labelled ligand stays bound in the presence of the test substance.
Experiment [2] concerns the target δ-opioid receptor (Mus musculus, UniProt P32300). The note with it: for affinity towards δ-receptors in words: abstract; for Ki: read-out: Ki (nM) δ, mouse brain membranes, tested as hydrochlorides, mean ± SEM of at least three experiments.
In experiment [3] the target is μ-opioid receptor (Mus musculus, UniProt P42866). In words: Radioligand binding assay, displacement of [3H]DAMGO from mouse brain membranes.

As usually defined, the Ki is a measure of affinity in units of concentration, obtained from inhibition or displacement.

With `CCC(=O)N1C2CCC1C1CCC2N1CC=C1CCc2ccccc21` (as salt: hydrochloride), the “affinity towards κ-receptors in words” value in experiment [1] is “negligible affinity”. In experiment [2], the “affinity towards δ-receptors in words” value was “negligible affinity” and the Ki is > 1000 nM.
Consider `CCC(=O)N1C2CCC1C1CCC2N1CC=C1CCc2cc(F)ccc21` (as salt: hydrochloride), for which the “μ-affinity / binding in words” value in experiment [3] (abstract and Figure 6 legend) is “nanomolar range”. Besides, the “affinity towards κ-receptors in words” value in experiment [1] is on record as “negligible affinity”. In addition, in experiment [2], the “affinity towards δ-receptors in words” value was “negligible affinity” and the Ki was > 1000 nM.
Take `CCC(=O)N1C2CCC1C1CCC2N1CC=C1CCc2cc(Cl)ccc21` (as salt: hydrochloride): in experiment [2], the inhibition constant (Ki) was > 1000 nM.
Still for that read-out and setting: the figure for `CCC(=O)N1C2CCC1C1CCC2N1CC=C1CCc2cc(Br)ccc21` (as salt: hydrochloride) is > 1000 nM.
For `CCC(=O)N1C2CCC3C1CCC2N3CC=C1CCc2ccccc21` (as salt: hydrochloride), the “fold lower μ-affinity compared to its isomer” value in experiment [3] (24 vs isomer 20, 54 vs isomer 53) is on record as 2 fold. In addition, the “affinity towards κ-receptors in words” value in experiment [1] is given as “negligible affinity”. Further, in experiment [2], the “affinity towards δ-receptors in words” value is “negligible affinity” and the Ki is > 1000 nM.
In the case of `CCC(=O)N1C2CCC3C1CCC2N3CC=C1CCc2cc(Cl)ccc21` (as salt: hydrochloride), the “affinity towards κ-receptors in words” value in experiment [1] is listed as “negligible affinity”. In addition, in experiment [2], the “affinity towards δ-receptors in words” value was “negligible affinity” and the Ki was > 1000 nM.
Consider `CCC(=O)N1C2CCC3C1CCC2N3CC=C1CCc2cc(Br)ccc21` (as salt: hydrochloride), for which the Ki in experiment [2] was > 1000 nM.
